This passage reports z.score.t results from patent US20260053861A1, “CELL COMPOSITIONS AND METHODS OF USING THE SAME” (THE REGENTS OF THE UNIVERSITY OF CALIFORNIA, priority 2022, published 2026).

This assay deals with hPSC-SCs. The experiment in a line: High-throughput screening assay for drugs reversing glucose-mediated SC cytotoxicity (Prestwick library; viable cell count, z-score). Conditions: HTS viability of hPSC-SCs in the presence of 30 mM glucose, Table S4.

Regarding `NC(=O)Nc1ccc([As](=O)(O)O)cc1`, the z.score.t is −1.346.
